This assay addresses T1, A disintegrin and metalloproteinase with thrombospondin motifs 4 (Homo sapiens, UniProt O75173).
T1 sequence (O75173 whole entry): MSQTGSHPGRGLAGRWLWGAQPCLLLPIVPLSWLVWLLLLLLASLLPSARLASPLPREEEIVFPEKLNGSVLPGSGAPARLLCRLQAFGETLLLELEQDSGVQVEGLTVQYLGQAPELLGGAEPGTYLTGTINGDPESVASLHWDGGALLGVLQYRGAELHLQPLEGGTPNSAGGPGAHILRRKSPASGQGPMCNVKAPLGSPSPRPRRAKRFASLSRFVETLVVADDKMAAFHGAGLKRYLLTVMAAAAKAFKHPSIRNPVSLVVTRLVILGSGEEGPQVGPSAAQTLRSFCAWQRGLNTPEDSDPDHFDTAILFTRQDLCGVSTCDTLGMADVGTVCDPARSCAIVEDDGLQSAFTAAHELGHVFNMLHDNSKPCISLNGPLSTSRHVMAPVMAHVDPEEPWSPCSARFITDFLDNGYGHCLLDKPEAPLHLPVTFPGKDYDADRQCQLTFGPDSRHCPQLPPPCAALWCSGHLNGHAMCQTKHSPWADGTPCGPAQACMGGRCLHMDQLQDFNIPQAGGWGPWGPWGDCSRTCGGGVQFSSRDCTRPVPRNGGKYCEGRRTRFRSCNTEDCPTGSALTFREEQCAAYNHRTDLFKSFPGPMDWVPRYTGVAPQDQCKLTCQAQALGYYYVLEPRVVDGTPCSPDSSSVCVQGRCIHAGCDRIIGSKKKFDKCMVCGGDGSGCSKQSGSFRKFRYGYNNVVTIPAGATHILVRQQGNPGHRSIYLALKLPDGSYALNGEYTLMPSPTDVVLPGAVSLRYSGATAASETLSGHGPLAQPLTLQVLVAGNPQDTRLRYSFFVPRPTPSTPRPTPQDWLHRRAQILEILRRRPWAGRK
Nature of the assay: Inhibition of human ADAMTS4 using VQTVTWPDMELPLPRNITEGEARGSVILTVKPIFEVSPSPLKG peptide as substrate after 3 hrs by Alphascreen assay. In general terms: In Alpha technology, singlet oxygen from a donor bead excites a nearby acceptor bead.

Broadly, the IC50 is the concentration that inhibits the measured activity by half. High values mean weaker potency, low ones greater potency. The compound `C[C@@H](Cc1ccc(C(F)(F)F)cc1)C(=O)NC[C@@]1(C2CC2)NC(=O)NC1=O` displayed an IC50 of 12 nM.

Values taken from ChEMBL document CHEMBL4011634 (J Med Chem, 2017).
